The values that follow come from ChEMBL document CHEMBL5380781, “Recent Advances on Small-Molecule Bromodomain-Containing Histone Acetyltransferase Inhibitors” (J Med Chem, 2023).

Amino acid sequences for entries named in this document (tags omitted). A change or cut given only in a name is not applied to a line headed by its entry.
UniProt Q09472, whole entry: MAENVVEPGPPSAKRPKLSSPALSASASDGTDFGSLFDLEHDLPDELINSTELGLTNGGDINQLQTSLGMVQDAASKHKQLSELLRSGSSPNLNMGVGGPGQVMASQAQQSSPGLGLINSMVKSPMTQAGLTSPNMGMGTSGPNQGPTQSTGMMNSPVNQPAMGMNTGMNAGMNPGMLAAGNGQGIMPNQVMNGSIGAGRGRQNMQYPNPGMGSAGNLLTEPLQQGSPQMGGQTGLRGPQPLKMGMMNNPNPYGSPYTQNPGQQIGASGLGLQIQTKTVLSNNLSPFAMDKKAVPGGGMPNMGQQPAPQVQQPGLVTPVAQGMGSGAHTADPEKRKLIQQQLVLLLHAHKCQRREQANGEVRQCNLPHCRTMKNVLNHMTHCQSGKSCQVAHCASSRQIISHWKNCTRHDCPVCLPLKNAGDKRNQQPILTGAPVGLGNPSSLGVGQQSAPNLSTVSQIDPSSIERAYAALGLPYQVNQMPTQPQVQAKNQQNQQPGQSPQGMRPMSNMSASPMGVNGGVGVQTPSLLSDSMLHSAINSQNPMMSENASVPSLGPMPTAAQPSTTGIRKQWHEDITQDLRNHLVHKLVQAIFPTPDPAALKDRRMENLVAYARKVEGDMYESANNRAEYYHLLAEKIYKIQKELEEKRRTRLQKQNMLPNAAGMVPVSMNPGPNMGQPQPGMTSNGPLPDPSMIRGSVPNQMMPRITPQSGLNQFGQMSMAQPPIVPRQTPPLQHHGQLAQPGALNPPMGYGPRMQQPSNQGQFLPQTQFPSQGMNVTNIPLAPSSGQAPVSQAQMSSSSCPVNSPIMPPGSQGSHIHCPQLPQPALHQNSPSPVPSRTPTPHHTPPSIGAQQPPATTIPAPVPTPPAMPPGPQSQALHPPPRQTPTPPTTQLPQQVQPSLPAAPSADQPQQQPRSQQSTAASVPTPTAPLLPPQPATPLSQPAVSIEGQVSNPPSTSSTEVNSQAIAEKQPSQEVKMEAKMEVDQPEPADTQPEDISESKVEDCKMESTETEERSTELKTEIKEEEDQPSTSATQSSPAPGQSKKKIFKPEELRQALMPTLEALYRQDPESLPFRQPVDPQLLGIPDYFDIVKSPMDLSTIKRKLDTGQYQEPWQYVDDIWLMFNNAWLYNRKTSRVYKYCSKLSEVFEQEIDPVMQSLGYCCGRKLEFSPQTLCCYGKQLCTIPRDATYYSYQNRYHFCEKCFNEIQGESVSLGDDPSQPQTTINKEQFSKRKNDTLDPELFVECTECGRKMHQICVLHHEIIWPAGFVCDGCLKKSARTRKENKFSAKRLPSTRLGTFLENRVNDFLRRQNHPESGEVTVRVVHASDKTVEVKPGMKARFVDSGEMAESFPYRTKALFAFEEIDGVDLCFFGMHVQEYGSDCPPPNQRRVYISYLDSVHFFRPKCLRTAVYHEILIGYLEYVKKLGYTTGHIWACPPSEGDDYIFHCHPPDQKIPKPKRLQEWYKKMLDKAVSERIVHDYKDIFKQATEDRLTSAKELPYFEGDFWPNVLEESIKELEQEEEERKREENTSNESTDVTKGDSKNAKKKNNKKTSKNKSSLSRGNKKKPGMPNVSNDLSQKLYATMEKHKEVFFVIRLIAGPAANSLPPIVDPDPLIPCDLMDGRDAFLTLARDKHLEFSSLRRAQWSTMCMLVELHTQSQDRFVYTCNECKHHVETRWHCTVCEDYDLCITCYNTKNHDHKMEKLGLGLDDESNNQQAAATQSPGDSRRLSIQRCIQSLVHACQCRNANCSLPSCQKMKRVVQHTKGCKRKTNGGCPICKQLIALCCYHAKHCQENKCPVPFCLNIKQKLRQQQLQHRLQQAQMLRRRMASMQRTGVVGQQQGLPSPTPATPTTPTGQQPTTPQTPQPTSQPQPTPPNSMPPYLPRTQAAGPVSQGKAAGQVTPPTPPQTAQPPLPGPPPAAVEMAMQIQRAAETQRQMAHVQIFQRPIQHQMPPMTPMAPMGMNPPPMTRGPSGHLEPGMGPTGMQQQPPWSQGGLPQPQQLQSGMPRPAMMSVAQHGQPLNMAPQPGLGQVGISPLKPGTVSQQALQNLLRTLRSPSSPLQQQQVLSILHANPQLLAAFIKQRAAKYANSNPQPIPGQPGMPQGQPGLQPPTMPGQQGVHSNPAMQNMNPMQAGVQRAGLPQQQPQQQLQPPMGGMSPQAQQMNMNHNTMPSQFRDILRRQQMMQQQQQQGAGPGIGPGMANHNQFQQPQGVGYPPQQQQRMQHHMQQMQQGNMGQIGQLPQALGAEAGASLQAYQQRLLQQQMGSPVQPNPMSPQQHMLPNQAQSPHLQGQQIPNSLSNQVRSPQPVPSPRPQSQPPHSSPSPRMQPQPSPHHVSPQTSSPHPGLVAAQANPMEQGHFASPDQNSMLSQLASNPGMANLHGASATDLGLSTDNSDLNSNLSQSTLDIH
UniProt Q92793, whole entry: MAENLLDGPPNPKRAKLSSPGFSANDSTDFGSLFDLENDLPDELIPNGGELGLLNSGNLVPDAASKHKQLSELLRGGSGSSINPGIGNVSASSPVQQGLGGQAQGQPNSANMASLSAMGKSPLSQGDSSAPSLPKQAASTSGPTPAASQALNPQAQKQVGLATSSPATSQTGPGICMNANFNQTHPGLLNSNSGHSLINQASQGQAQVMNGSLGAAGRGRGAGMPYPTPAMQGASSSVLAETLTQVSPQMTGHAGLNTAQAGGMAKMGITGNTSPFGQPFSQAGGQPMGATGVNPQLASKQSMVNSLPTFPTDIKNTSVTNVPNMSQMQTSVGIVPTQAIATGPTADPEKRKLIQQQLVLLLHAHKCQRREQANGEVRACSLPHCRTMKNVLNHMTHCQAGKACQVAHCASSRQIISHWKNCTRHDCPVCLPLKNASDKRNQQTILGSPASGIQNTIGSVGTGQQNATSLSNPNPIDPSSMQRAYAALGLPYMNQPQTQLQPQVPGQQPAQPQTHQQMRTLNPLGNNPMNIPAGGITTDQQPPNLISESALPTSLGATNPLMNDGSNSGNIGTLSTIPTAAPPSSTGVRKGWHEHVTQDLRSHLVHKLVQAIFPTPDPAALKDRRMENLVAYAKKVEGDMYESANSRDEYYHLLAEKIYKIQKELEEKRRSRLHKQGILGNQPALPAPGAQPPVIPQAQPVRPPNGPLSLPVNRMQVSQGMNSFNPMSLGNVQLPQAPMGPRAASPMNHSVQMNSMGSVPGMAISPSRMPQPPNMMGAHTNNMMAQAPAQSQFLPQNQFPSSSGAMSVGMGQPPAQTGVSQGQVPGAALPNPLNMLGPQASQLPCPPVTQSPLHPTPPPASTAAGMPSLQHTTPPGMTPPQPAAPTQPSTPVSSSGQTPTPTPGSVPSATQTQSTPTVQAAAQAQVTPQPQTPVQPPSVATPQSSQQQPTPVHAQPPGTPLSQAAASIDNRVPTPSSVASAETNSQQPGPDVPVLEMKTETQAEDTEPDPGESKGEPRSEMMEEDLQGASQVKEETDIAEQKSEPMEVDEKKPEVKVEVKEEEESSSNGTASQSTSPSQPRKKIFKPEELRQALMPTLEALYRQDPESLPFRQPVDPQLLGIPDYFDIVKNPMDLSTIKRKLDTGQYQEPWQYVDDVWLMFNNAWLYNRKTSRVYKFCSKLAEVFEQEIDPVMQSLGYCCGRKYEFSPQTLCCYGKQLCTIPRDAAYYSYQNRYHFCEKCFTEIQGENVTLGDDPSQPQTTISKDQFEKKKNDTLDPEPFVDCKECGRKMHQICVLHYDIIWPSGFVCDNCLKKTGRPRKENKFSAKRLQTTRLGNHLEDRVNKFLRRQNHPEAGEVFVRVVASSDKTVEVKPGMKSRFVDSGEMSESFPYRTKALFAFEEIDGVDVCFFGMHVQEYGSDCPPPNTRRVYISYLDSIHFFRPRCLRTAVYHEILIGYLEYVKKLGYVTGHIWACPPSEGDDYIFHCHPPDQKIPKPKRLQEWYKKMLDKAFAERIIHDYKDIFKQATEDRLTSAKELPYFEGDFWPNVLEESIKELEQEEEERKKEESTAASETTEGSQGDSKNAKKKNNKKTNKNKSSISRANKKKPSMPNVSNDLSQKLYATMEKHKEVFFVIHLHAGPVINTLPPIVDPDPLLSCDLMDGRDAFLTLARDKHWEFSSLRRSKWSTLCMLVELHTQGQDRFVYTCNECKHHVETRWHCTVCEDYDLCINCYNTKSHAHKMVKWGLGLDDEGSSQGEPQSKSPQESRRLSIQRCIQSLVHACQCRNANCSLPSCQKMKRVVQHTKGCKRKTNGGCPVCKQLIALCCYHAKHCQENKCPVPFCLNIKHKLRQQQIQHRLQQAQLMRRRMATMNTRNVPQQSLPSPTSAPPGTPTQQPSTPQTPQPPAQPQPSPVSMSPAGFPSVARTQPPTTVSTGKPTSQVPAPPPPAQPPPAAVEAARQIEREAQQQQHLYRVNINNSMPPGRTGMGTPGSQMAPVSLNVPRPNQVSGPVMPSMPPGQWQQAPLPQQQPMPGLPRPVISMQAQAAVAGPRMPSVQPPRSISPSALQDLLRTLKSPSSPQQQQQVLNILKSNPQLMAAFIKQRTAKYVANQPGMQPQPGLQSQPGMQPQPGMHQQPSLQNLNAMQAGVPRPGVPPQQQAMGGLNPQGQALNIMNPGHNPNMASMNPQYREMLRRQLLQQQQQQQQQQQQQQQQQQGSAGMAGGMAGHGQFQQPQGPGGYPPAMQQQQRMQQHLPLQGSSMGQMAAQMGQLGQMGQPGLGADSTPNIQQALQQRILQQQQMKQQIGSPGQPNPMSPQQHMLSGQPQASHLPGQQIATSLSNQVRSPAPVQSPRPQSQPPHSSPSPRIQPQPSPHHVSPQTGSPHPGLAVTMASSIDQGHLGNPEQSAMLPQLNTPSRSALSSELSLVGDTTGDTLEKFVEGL
UniProt Q92831: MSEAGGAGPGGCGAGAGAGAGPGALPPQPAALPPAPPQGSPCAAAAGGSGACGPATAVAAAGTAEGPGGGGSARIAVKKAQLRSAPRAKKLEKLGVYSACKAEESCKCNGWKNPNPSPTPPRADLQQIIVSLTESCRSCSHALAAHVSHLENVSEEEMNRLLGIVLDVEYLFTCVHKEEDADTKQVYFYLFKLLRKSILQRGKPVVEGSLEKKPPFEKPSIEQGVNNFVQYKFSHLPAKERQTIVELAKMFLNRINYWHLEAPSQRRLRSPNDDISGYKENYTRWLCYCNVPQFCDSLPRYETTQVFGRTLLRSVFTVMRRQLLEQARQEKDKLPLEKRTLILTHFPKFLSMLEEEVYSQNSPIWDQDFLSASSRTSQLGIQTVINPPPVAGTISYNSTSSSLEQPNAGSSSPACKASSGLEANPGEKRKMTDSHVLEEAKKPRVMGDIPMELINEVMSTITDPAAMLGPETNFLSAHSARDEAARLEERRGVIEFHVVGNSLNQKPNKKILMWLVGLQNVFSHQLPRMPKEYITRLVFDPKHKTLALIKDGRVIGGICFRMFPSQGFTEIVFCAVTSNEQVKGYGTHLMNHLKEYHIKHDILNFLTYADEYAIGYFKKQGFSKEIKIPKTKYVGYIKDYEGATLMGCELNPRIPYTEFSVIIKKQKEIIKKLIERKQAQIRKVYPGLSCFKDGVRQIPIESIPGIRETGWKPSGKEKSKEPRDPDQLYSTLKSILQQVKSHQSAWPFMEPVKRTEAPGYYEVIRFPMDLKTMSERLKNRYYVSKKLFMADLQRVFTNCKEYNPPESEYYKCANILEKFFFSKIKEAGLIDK
UniProt Q92830: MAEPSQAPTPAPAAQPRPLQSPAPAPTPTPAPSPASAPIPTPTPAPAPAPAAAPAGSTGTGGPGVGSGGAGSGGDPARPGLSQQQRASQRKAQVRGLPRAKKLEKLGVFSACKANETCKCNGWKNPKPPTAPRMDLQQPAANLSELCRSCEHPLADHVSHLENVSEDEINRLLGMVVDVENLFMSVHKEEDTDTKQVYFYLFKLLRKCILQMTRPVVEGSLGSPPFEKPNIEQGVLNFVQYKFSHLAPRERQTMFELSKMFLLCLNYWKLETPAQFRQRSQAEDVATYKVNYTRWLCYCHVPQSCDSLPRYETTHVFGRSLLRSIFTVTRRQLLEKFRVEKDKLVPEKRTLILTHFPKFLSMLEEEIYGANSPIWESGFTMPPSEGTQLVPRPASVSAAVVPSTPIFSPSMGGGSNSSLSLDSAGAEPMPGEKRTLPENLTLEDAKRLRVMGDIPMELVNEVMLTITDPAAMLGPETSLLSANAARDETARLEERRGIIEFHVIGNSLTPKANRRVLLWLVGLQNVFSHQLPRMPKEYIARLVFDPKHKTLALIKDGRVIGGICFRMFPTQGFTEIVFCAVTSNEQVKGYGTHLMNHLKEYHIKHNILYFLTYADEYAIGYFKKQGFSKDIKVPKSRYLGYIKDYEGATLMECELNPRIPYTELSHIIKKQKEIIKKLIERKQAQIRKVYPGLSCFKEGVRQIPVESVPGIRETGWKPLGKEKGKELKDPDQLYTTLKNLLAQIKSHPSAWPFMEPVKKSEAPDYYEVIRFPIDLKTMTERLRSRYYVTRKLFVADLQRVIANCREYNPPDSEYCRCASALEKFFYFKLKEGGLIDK

The target of experiment [1] is Histone acetyltransferase p300 (Homo sapiens, UniProt Q09472).
For experiment [2], the target named is CREB-binding protein (Homo sapiens, UniProt Q92793). The experiment is described as follows: Binding affinity to CBP bromodomain (unknown origin) assessed as dissociation constant.
Experiment [3] addresses Histone acetyltransferase KAT2A/KAT2B (Homo sapiens, UniProt Q92831+Q92830). The experiment is described as follows: Inhibition of PCAF bromodomain/GCN5 bromodomain (unknown origin). The experiment is classed as protein assay.

As to `COC1CCC(n2c([C@H]3CCCC(=O)N3c3ccc(F)c(F)c3)nc3cc(-c4c(C)noc4C)ccc32)CC1` (stereo partly drawn), the Kd in experiment [1] was determined as 1.3 nM; in experiment [2], 1.7 nM.
On to `CC(C)C[C@H]1C[C@@H](Nc2cnn(C)c(=O)c2Cl)CN(C)C1`, for which, in experiment [3], the IC50 stood at 13 nM. This lies in the double-digit nanomolar range.
